Assay results from article PMC10390045.

B1: DNMT1: S878A (protein)
parent chain: MPARTAPARVPTLAVPAISLPDDVRRRLKDLERDSLTEKECVKEKLNLLHEFLQTEIKNQLCDLETKLRKEELSEEGYLAKVKSLLNKDLSLENGAHAYNREVNGRLENGNQARSEARRVGMADANSPPKPLSKPRTPRRSKSDGEAKPEPSPSPRITRKSTRQTTITSHFAKGPAKRKPQEESERAKSDESIKEEDKDQDEKRRRVTSRERVARPLPAEEPERAKSGTRTEKEEERDEKEEKRLRSQTKEPTPKQKLKEEPDREARAGVQADEDEDGDEKDEKKHRSQPKDLAAKRRPEEKEPEKVNPQISDEKDEDEKEEKRRKTTPKEPTEKKMARAKTVMNSKTHPPKCIQCGQYLDDPDLKYGQHPPDAVDEPQMLTNEKLSIFDANESGFESYEALPQHKLTCFSVYCKHGHLCPIDTGLIEKNIELFFSGSAKPIYDDDPSLEGGVNGKNLGPINEWWITGFDGGEKALIGFSTSFAEYILMDPSPEYAPIFGLMQEKIYISKIVVEFLQSNSDSTYEDLINKIETTVPPSGLNLNRFTEDSLLRHAQFVVEQVESYDEAGDSDEQPIFLTPCMRDLIKLAGVTLGQRRAQARRQTIRHSTREKDRGPTKATTTKLVYQIFDTFFAEQIEKDDREDKENAFKRRRCGVCEVCQQPECGKCKACKDMVKFGGSGRSKQACQERRCPNMAMKEADDDEEVDDNIPEMPSPKKMHQGKKKKQNKNRISWVGEAVKTDGKKSYYKKVCIDAETLEVGDCVSVIPDDSSKPLYLARVTALWEDSSNGQMFHAHWFCAGTDTVLGATSDPLELFLVDECEDMQLSYIHSKVKVIYKAPSENWAMEGGMDPESLLEGDDGKTYFYQLWYDQDYARFESPPKTQPTEDNKFKFCVSCARLAEMRQKEIPRVLEQLEDLDSRVLYYSATKNGILYRVGDGVYLPPEAFTFNIKLSSPVKRPRKEPVDEDLYPEHYRKYSDYIKGSNLDAPEPYRIGRIKEIFCPKKSNGRPNETDIKIRVNKFYRPENTHKSTPASYHADINLLYWSDEEAVVDFKAVQGRCTVEYGEDLPECVQVYSMGGPNRFYFLEAYNAKSKSFEDPPNHARSPGNKGKGKGKGKGKPKSQACEPSEPEIEIKLPKLRTLDVFSGCGGLSEGFHQAGISDTLWAIEMWDPAAQAFRLNNPGSTVFTEDCNILLKLVMAGETTNSRGQRLPQKGDVEMLCGGPPCQGFSGMNRFNSRTYSKFKNSLVVSFLSYCDYYRPRFFLLENVRNFVSFKRSMVLKLTLRCLVRMGYQCTFGVLQAGQYGVAQTRRRAIILAAAPGEKLPLFPEPLHVFAPRACQLSVVVDDKKFVSNITRLSSGPFRTITVRDTMSDLPEVRNGASALEISYNGEPQSWFQRQLRGAQYQPILRDHICKDMSALVAARMRHIPLAPGSDWRDLPNIEVRLSDGTMARKLRYTHHDRKNGRSSSGALRGVCSCVEAGKACDPAARQFNTLIPWCLPHTGNRHNHWAGLYGRLEWDGFFSTTVTNPEPMGKQGRVLHPEQHRVVSVRECARSQGFPDTYRLFGNILDKHRQVGNAVPPPLAKAIGLEIKLCMLAKARESASAKIKEEEAAKD
B2: DNMT1: T158A (protein)
parent chain: B1 parent chain
B3: DNMT1: S878D (protein)
parent chain: B1 parent chain
B4: DNMT1: 25 mM glucose + TMG (protein)
parent chain: B1 parent chain

Key:
[1] = immunofluorescence, confocal microscopy; details: control: DNMT1-WT, low glucose
[2] = EpiQuik DNMT activity ELISA on immunoprecipitated Myc-DNMT1; details: glycan lost; control: Myc-DNMT1-WT under high glucose/TMG

Row | Protein | localisation_or_trafficking ([1]; glycan lost) | enzymatic_activity [2] | localisation_or_trafficking ([1]; glycan gained)
1 | B1 | no change | increases | 
2 | B2 |  | no change | 
3 | B3 |  | increases | 
4 | B4 |  |  | no change
